Measured values published in publication PMC7345279 (Antibiotics, 2020).

Test system: human plasma proteins
Assay: Unbound fraction / protein binding of FLU in pooled plasma, alone and with a second drug (ultrafiltration, LC-MS/MS)
Settings: Table 5 'FLU alone' line (no HSA named, presumably pooled plasma); FLU 0.2 µg/mL

## Cc1onc(-c2c(F)cccc2Cl)c1C(=O)N[C@@H]1C(=O)N2[C@@H]1SC(C)(C)[C@@H]2C(=O)O [FLU, Flucloxacillin]
  % Unb: 0.84%
  Total Conc: 0.25 µg/mL
  Unb Conc: 0.002 µg/mL
